Assays:
Type in all cases: biochemical
activated ERK2 [1] = molecular target: T1, activated ERK2 (Homo sapiens (Human), UniProt P28482); assay: Activated ERK2 (20 pM) Kinase Assay (AlphaScreen, ERKtide phosphorylation); conditions: 0.02 nM ERK2, 400 nM ERKtide peptide, 35 μM ATP, 30 min preincubation
Experimental: Activated ERK2 (20 pM) Kinase Assay:
Compound potency against activated ERK2 was determined using a kinase assay that measures ERK2-catalyzed phosphorylation of biotinylated ERKtide peptide substrate ([Biotin]-AH[…]-[NH2], the peptide sequence derived from EGF receptor: SEQ ID NO:1). The assay was carried out in 20 mM HEPES [pH 7.5], 5 mM MgCl2, 1 mM DTT, 0.01% Tween-20, 0.05% BSA using 0.02 nM ERK2, 400 nM ERKtide peptide and 35 μM ATP (all concentrations are final in the reaction) in a total volume of 10.25 μL. […] Compound dilution series were prepared in 100% DMSO. ERK2 was preincubated with compounds for 30 minutes at ambient temperature. Reaction was initiated by addition of a substrate cocktail of ERKtide peptide and ATP and was allowed to proceed for 4 hours at ambient temperature. Reaction was terminated by addition of 10 μL of a 2× stop buffer consisting of 100 mM Tris-Cl [pH 7.5], 25 mM EDTA, 0.01% Tween 20, 20 μg/mL of AlphaScreen Protein A Acceptor Beads, 20 μg/mL of Streptavidin Donor Beads (PerkinElmer, Waltham, Mass.), and 1:1000 dilution phospho-EGF Receptor (Thr669) antibody (Cat #8808, Cell Signaling Technology, Danvers, Mass.). Terminated reactions were read, after overnight incubation in the dark, on an EnVision Multilabel Plate Reader (PerkinElmer, Waltham, Mass.), with excitation and emission wavelengths set to 680 nm and 570 nm, respectively. IC50 values were determined using a four-parameter fit.

Sequences of proteins named here, by UniProt entry; tags and fusion partners are left off.
UniProt P28482, whole entry: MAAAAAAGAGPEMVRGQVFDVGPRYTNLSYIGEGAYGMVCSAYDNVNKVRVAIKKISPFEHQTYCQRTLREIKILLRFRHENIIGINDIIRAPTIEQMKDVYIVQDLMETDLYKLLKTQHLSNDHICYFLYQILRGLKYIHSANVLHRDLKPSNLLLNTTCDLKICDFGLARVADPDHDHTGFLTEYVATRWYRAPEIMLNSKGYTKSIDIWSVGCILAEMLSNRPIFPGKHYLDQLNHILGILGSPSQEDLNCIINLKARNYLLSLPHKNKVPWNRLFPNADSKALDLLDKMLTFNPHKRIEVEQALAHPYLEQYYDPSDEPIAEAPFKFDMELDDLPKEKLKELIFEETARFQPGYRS

ERK2 = ERK2 (Homo sapiens (Human), UniProt P28482); assay: ERK2 Alphascreen
activated ERK2 [2] = molecular target: T1, activated ERK2; assay: Activated ERK2 kinase assay, ERK2 New conditions (AlphaScreen, ERKtide phosphorylation); conditions: 0.25 nM ERK2, 200 nM ERKtide peptide, 35 μM ATP, 30 min preincubation
Experimental: The following assay conditions (ERK2 New) were used for some compounds in the following Table, and provide substantially similarIC50s to the assay described above, for IC50 about 0.1 μM or above. […]
Compound potency against activated ERK2 is determined using a kinase assay that measures ERK2-catalyzed phosphorylation of biotinylated ERKtide peptide substrate ([Biotin]-AH[…]-[NH2], the peptide sequence derived from EGF receptor: SEQ ID NO:1). The assay is carried out in 50 mM HEPES [pH 7.5], 5 mM MgCl2, 1 mM DTT, 0.01% Tween-20, 0.05% BSA using 0.25 nM ERK2, 200 nM ERKtide peptide and 35 μM ATP (all concentrations are final in the reaction) in a total volume of 10.25 μL. […] Compound dilution series are prepared in 100% DMSO. ERK2 is preincubated with compounds for 30 minutes at ambient temperature. Reaction is initiated by addition of a substrate cocktail of ERKtide peptide and ATP and is allowed to proceed for 2-3 hours at ambient temperature. Reaction is terminated by addition of 10 μL of a 2× stop buffer consisting of 100 mM Tris-Cl [pH 7.5], 25 mM EDTA, 0.01% Tween 20, 10 μg/mL of AlphaScreen Protein A Acceptor Beads, 10 μg/mL of Streptavidin Donor Beads (PerkinElmer, Waltham, Mass.), and 1.4 μg/mL phospho-EGF Receptor (Thr669) antibody (Cat #3056, Cell Signaling Technology, Danvers, Mass.). Terminated reactions are read, after overnight incubation in the dark, on an EnVision Multilabel Plate Reader (PerkinElmer, Waltham, Mass.), with excitation and emission wavelengths set to 680 nm and 570 nm, respectively. IC50 values are determined using a four-parameter fit.

SMILES	IC50 (activated ERK2 [1]) [nM]	IC50 (ERK2) [nM]	IC50 (activated ERK2 [2]) [nM]
Nc1ncc(C2CCOCC2)cc1-c1ccc(C(=O)N[C@H](CO)c2ccccc2)c(C(F)(F)F)c1 [Example 74, (S)-4-(2-amino-5-(tetrahydro-2H-pyran-4-yl)pyridin-3-yl)-N-(2-hydroxy-1-phenylethyl)-2-(trifluoromethyl)benzamide]	20.3	37.6	
Nc1ncc(C2CCOCC2)cc1-c1ccc2c(c1)CCNC2=O [Example 439, 6-(2-amino-5-(tetrahydro-2H-pyran-4-yl)pyridin-3-yl)-3,4-dihydroiso-quinolin-1(2H)-one]	60.9	98.5	
Nc1ncc(C2CCOCC2)cc1-c1ccc(C(=O)N[C@H](CO)c2ccccc2)c(Cl)c1 [Example 73, (S)-4-(2-amino-5-(tetrahydro-2H-pyran-4-yl)pyridin-3-yl)-2-chloro-N-(2-hydroxy-1-phenylethyl)benzamide]	1.29	3.08	
Nc1ncc(-c2ccncc2)nc1-c1ccc(C(=O)N[C@H](CO)c2ccccc2)c(F)c1 [Example 142, (S)-4-(3-amino-6-(pyridin-4-yl)pyrazin-2-yl)-2-fluoro-N-(2-hydroxy-1-phenylethyl)benzamide]	0.21	0.201	
C[C@@H]1CN(c2cnc(N)c(-c3ccc(C(=O)N[C@H](CO)c4ccccc4)c(F)c3)c2)C[C@H](C)O1 [Example 96, 4-(2-amino-5-((2S,6R)-2,6-dimethylmorpholino)pyridin-3-yl)-2-fluoro-N-((S)-2-hydroxy-1-phenylethyl)benzamide]	84.6	91.3	
Nc1ncc(C2CCOCC2)nc1-c1ccc(C(=O)N[C@H](CO)c2cccc(Cl)c2)c(F)c1 [Example 438, (S)-4-(3-amino-6-(tetrahydro-2H-pyran-4-yl)pyrazin-2-yl)-N-(1-(3-chlorophenyl)-2-hydroxyethyl)-2-fluorobenzamide]	0.0252	0.113	0.0914
Nc1ncc(C2CCOCC2)nc1-c1ccc(C(=O)NCCc2ccccc2)c(F)c1 [Example 328, 4-(3-amino-6-(tetrahydro-2H-pyran-4-yl)pyrazin-2-yl)-2-fluoro-N-phenethyl-benzamide]		7.64	8.29
Nc1ncc(C2CCOCC2)nc1-c1ccc(C(=O)N[C@H]2C[C@@H]2c2ccccc2)c(F)c1 [Example 200, 4-(3-amino-6-(tetrahydro-2H-pyran-4-yl)pyrazin-2-yl)-2-fluoro-N-((1S,2R)-2-phenylcyclopropyl)benzamide]	0.0842	0.183	0.207
C[C@@H](NC(=O)c1ccc(-c2cc([C@@H]3CCN(C)C(=O)C3)cnc2N)cc1F)c1cccc(Cl)c1 [Example 33, 4-(2-amino-5-((R)-1-methyl-2-oxopiperidin-4-yl)pyridin-3-yl)-N—((R)-1-(3-chlorophenyl)ethyl)-2-fluorobenzamide]	13.2		18.2
Nc1ncc(-c2ccncc2)cc1-c1ccc(C(=O)N[C@H](CO)c2ccccc2)c(F)c1 [Example 81, (S)-4-(6-amino-[3,4′-bipyridin]-5-yl)-2-fluoro-N-(2-hydroxy-1-phenylethyl)benzamide]	0.163	0.166	0.487
Nc1ncc(C2CCS(=O)(=O)CC2)cc1-c1ccc(C(=O)N[C@H](CO)c2ccccc2)c(F)c1 [Example 79, (S)-4-(2-amino-5-(1,1-dioxidotetrahydro-2H-thiopyran-4-yl)pyridin-3-yl)-2-fluoro-N-(2-hydroxy-1-phenylethyl)benzamide]		33.3	32.4
Cc1cccc(CNC(=O)c2ccc(-c3cc(C4CCOCC4)cnc3N)cc2F)n1 [Example 205, 4-(2-amino-5-(tetrahydro-2H-pyran-4-yl)pyridin-3-yl)-2-fluoro-N-((6-methylpyridin-2-yl)methyl)benzamide]		80.2	
C[C@@H](NC(=O)c1ccc(-c2cc([C@H]3CCN(C)C(=O)C3)cnc2N)cc1F)c1cccc(Cl)c1 [Example 34, 4-(2-amino-5-((S)-1-methyl-2-oxopiperidin-4-yl)pyridin-3-yl)-N—((R)-1-(3-chlorophenyl)ethyl)-2-fluorobenzamide]	3.98		7.13

From patent publication US9242996B2 (Novartis AG, priority 2013, dated 2016)
